Results reported in ChEMBL document CHEMBL1136887, “Synthesis and evaluation of pharmacological profile of 1-aryl-6,7-dimethoxy-3,4-dihydroisoquinoline-2(1H)-sulfonamides” (Bioorg Med Chem, 2009).

Biological target: Carbonic anhydrase 9 (Homo sapiens, UniProt Q16790)
Assay: Inhibition of human recombinant carbonic anhydrase 9 catalytic domain by stopped flow CO2 hydration method

**Q.** How did the Ki turn out when `COc1cc2c(cc1OC)C(c1ccccc1)N(S(N)(=O)=O)CC2` (stereo unspecified) was run?
**A.** The Ki was 8.44 µM.
